Test results published in ChEMBL document CHEMBL1121781, “Potential antitumor agents. 34. Quantitative relationships between DNA binding and molecular structure for 9-anilinoacridines substituted in the anilino ring” (J Med Chem, 1981).

Tests used:
Nucleic Acid [1] = test system: Nucleic Acid
Nucleic Acid [2] = test system: Nucleic Acid; remark: listed apart in the source

**Q.** With `CNC(=O)Nc1ccc(Nc2c3ccccc3nc3ccccc23)cc1` as the compound, how does the Log K (Nucleic Acid [1]) read?
**A.** 6.17

**Q.** And the Log K (Nucleic Acid [2])?
**A.** 6.24

**Q.** What does the source list for `CC(=O)Nc1ccc(Nc2c3ccccc3nc3ccccc23)cc1`?
**A.** Log K (Nucleic Acid [1]): 6.25; Log K (Nucleic Acid [2]): 6.3

**Q.** `COC(=O)Nc1ccc(Nc2c3ccccc3nc3ccccc23)cc1` was tested. Which Log K (Nucleic Acid [2]) did it give?
**A.** 6.36

**Q.** How did the Log K (Nucleic Acid [2]) turn out when `CS(=O)(=O)Nc1cccc(Nc2c3ccccc3nc3ccccc23)c1` was run?
**A.** 5.73

**Q.** Which Log K (Nucleic Acid [1]) does the source give for `CS(=O)(=O)Nc1ccc(Nc2c3ccccc3nc3ccccc23)cc1` here?
**A.** 6.27

**Q.** What about the Log K (Nucleic Acid [2]) of the same compound?
**A.** 6.15
